# Experimental data as given in patent US5780474A, “3-(piperid-4-yl)-1,2-benzisoxazole and 3-(piperazin-4-yl)-1,2-benzisoxazole compounds” (Adir et Compagnie, priority 1996, dated 1998).
# Experiment: Induction of catalepsy in the rat
# Conditions: in vivo, sc
smiles,measurement,value
Cc1nc2n(c(=O)c1CCN1CCC(c3noc4cc(F)ccc34)CC1)CCCC2 [risperidone],ED50 at 1 h,1.2 mg/kg
